# Test results as given in ChEMBL document CHEMBL3885861, “Open TG-GATES”.
# Experiments:
# [1] = organism: Rattus norvegicus; test: Open TG-GATES - Regimen: Daily Repeat; format: toxicity, organism-based, Sprague-Dawley; set-up: regimen Daily Repeat, gender Male, age 6 weeks; conditions: in vivo, po, tissue Plasma, route gavage
# [2] = organism: Rattus norvegicus; test: Open TG-GATES - Regimen: Single; format: toxicity, organism-based, Sprague-Dawley; set-up: regimen Single, gender Male, age 6 weeks; conditions: in vivo, po, route gavage
# [3] = 0 mg/kg, 72 h, dose level Control, time 3 day
# [4] = 0 mg/kg, […], dose level Control, time 7 day
# [5] = 0 mg/kg, […], dose level Control, time 14 day
# [6] = 0 mg/kg, […], dose level Control, time 28 day
# [7] = 20 mg/kg, 72 h, dose level Low, time 3 day
# [8] = 20 mg/kg, […], dose level Low, time 7 day
# [9] = 20 mg/kg, […], dose level Low, time 14 day
# [10] = 20 mg/kg, […], dose level Low, time 28 day
# [11] = 60 mg/kg, 72 h, dose level Middle, time 3 day
# [12] = 60 mg/kg, […], dose level Middle, time 7 day
# [13] = 60 mg/kg, […], dose level Middle, time 14 day
# [14] = 60 mg/kg, […], dose level Middle, time 28 day
# [15] = 200 mg/kg, 72 h, dose level High, time 3 day
# [16] = 200 mg/kg, […], dose level High, time 7 day
# [17] = 200 mg/kg, […], dose level High, time 14 day
# [18] = 200 mg/kg, […], dose level High, time 28 day
# [19] = 0 mg/kg, 6 h, tissue Blood, dose level Control
# [20] = 0 mg/kg, 24 h, tissue Blood, dose level Control
# [21] = 30 mg/kg, 24 h, tissue Blood, dose level High
compound,measurement,setting,value
CCCCc1oc2ccccc2c1C(=O)c1cc(I)c(OCCN(CC)CC)c(I)c1 [AMIODARONE],A/G,[1]; [3],1.6
same,IP,[1]; [3],6.9 mg/dL
same,A/G,[1]; [4],1.5
same,IP,[1]; [4],7.2 mg/dL
same,A/G,[1]; [5],1.5
same,IP,[1]; [5],7.6 mg/dL
same,A/G,[1]; [6],1.3
same,IP,[1]; [6],6.5 mg/dL
same,A/G,[1]; [7],1.5
same,IP,[1]; [7],7.5 mg/dL
same,A/G,[1]; [8],1.4
same,IP,[1]; [8],7.5 mg/dL
same,A/G,[1]; [9],1.4
same,IP,[1]; [9],7.8 mg/dL
same,A/G,[1]; [10],1.3
same,IP,[1]; [10],6.3 mg/dL
same,A/G,[1]; [11],1.6
same,IP,[1]; [11],7.2 mg/dL
same,A/G,[1]; [12],1.5
same,IP,[1]; [12],8.2 mg/dL
same,A/G,[1]; [13],1.4
same,IP,[1]; [13],7.2 mg/dL
same,A/G,[1]; [14],1.3
same,IP,[1]; [14],7.2 mg/dL
same,A/G,[1]; [15],1.6
same,IP,[1]; [15],7.3 mg/dL
same,A/G,[1]; [16],1.5
same,IP,[1]; [16],7.9 mg/dL
same,A/G,[1]; [17],1.5
same,IP,[1]; [17],7.2 mg/dL
same,A/G,[1]; [18],1.4
same,IP,[1]; [18],6.6 mg/dL
CNCCC(Oc1ccc(C(F)(F)F)cc1)c1ccccc1.Cl (centres undefined) [FLUOXETINE HYDROCHLORIDE],Hb,"[2]; 0 mg/kg, 3 h, tissue Blood, dose level Control",13.2 g/dL
same,TC,"[2]; 0 mg/kg, 3 h, tissue Plasma, dose level Control",83.2 mg/dL
same,Hb,[2]; [19],13.2 g/dL
same,MCV,[2]; [19],66.9 fL
same,LDH,"[2]; 0 mg/kg, 6 h, tissue Plasma, dose level Control",90.8 IU/L
same,Fbg,"[2]; 0 mg/kg, 9 h, tissue Blood, dose level Control",244.6 mg/dL
same,LDH,"[2]; 0 mg/kg, 9 h, tissue Plasma, dose level Control",107 IU/L
same,MCV,[2]; [20],66.2 fL
same,RBC,[2]; [20],598.6 x10_4/ul
same,AST,"[2]; 3 mg/kg, 3 h, tissue Plasma, dose level Low",69.6 IU/L
same,PT,"[2]; 3 mg/kg, 6 h, tissue Blood, dose level Low",12.5 s
same,Ca,"[2]; 3 mg/kg, 6 h, tissue Plasma, dose level Low",11.5 mg/dL
same,RBC,"[2]; 3 mg/kg, 9 h, tissue Blood, dose level Low",598.6 x10_4/ul
same,APTT,"[2]; 10 mg/kg, 24 h, tissue Blood, dose level Middle",15.8 s
same,Cl,"[2]; 10 mg/kg, 24 h, tissue Plasma, dose level Middle",104.1 meq/L
same,Mono,"[2]; 30 mg/kg, 3 h, tissue Blood, dose level High",13.2%
same,Neu,"[2]; 30 mg/kg, 6 h, tissue Blood, dose level High",18.6%
same,Hb,"[2]; 30 mg/kg, 9 h, tissue Blood, dose level High",13.2 g/dL
same,Neu,[2]; [21],15.8%
same,Plat,[2]; [21],127 x10_4/uL
same,RBC,[2]; [21],606.4 x10_4/ul
same,Ca,"[2]; 30 mg/kg, 24 h, tissue Plasma, dose level High",10.7 mg/dL
